Holding throughout (assay type): in vivo, DBA/2 female mice
For test [1], the system named is reductive glutathione in MΦ. Nature of the test: GSH content in MΦ by ACAS after NAC drinking and/or IL-2 administration (Example 8). The conditions noted are these: NAC 1 mg/ml in city water; IL-2 intraperitoneally twice a day every two days for two weeks; day 14. As for the experimental part:
Three-hundred microliters of a cell suspension adjusted concentration of 3×10^5 cells/ml in an RPMI 1640 medium (phenol red-free) were charged into a chambered coverglass (#136439, supplied by Nunc), and incubated at 37° C. for 2 hours using a CO2 incubator. The culture solution was washed with the medium, and 300 μl of monochlorobimane (supplied by Molecular Plobe) adjusted to 10 μM in the same medium were added thereto. The mixture was charged into a CO2 incubator of 37° C., and the reaction was conducted for 30 minutes. The fluorescent intensity was measured with ACAS. In ACAS, a UV laser was used.
Two groups, namely, a group of 8-week-old DBA/2 female mice which were caused to freely drink city water as in Example 6, and a group of the same female mice which were caused to freely drink city water containing 1 mg/ml of NAC, were prepared. Further, the two groups of the-above-mentioned mice to which human recombinant IL-2 in an amount of 2 pg/0.5 ml/h was intraperitoneally administered twice a day, every two days for two weeks were provided. On day 14, the IL-12 production from MΦ was measured in the same manner as in Example 6.
The peritoneal cells were harvested from the mice which had undergone the respective treatments, and the GSH content in cells was analyzed by ACAS using an MCB reagent.

For test [2], the system named is IL-6. Kind of test: IL-6 production of MΦ after NAC drinking and/or IL-2 administration (Example 8). The conditions noted are these: stimulated with LPS and IFNγ; control mice 1,240 pg/ml. As for the experimental part: A stimulator was added to 1×10^6 MΦ, and the incubation was conducted at 37° C. for 2 days in a CO2 incubator. After centrifugation, the culture supernatant was collected.
The amount of IL-6 was determined using IL-6 dependent mouse hybridoma MH60 cells (J. Eur. Immunol., vol. 18, p. 951, 1988). One hundred microliters of the culture supernatant were added to 100 μl of the MH60 cell suspension adjusted to 1×10^5 cells/ml in a 10% FCS-containing RPMI medium, and the mixed solution was incubated at 37° C. for 2 days in a CO2 incubator. Subsequently, 10 μl of MTT (supplied by Sigma Co.) solution adjusted to a concentration of 5 mg/ml in the same medium were added thereto, and the reaction was conducted at 37° C. for 5 hours. […] Immediately after the dissolution, an absorbance of 570 nm was measured with an immunometer (supplied by Bio-Rad).
(§1) Two groups, namely, a group of 8-week-old DBA/2 female mice which were caused to freely drink city water as in Example 6, and a group of the same female mice which were caused to freely drink city water containing 1 mg/ml of NAC, were prepared. […] On day 14, the IL-12 production from MΦ was measured in the same manner as in Example 6.
(§2) Peritoneal cells were harvested from four groups of the mice, and stimulated with LPS and IFNγ. Then, the NO production, the IL-6 production and the IL-12 production were measured. […]

Test [3] has as its system IL-12. Kind of test: IL-12 production of MΦ after NAC drinking and/or IL-2 administration (Example 8). As to conditions: stimulated with LPS and IFNγ; control mice 0 pg/ml. Here is the method:
The amount of IL-12 was determined through bioassay using cells of human T cell strain 2D6 (J. Leukocyte Biology, vol. 61, p. 346, 1997).
2D6 cells which had been incubated in an RPMI 1640 medium containing 500 pg/ml of recombinant human IL-12, 50 μM of 2-mercaptoethanol and 10% FCS (fetal calf serum) were moved to a tube, and centrifugally washed three times with the above-mentioned medium without IL-12 and cell density was adjusted to 1×10^5/ml. The cell suspension was added in an amount of 100 μl each to a 96-well flat bottom plate containing a sample serially diluted in advance with an RPMI 1640 medium containing 50 μM of 2-mercaptoethanol and 10% FCS in an amount of 100 μl each. […] The cells a harvested, and the radioactivity was measured using a β counter (Matrix 96, supplied by Packard).
as §1, §2

As for IL-2: human recombinant IL-2, the “content of reductive glutathione in MΦ (ACAS)” value in test [1] is reported as “markedly increased”. The “amount of IL-6 in the macrophage culture supernatant” value in test [2] came to 520 pg/mL. Further, the “amount of IL-12” value in test [3] was found to be 946 pg/mL.

The values above are taken from US7378387B2, “Method of suppressing immune response by reducing intracellular content of glutathione in macrophages and monocytes” (Ajinomoto Co., Inc., priority 1997, dated 2008).
